INS-1E GSIS act – GLuc luminescence reporter in INS-1E cells, primary screen for activators of glucose-dependent secretion of insulin; INS-1E GLuc reporter insulin secretion, 2-3 h; activation, % at 16.6 µM; 0.61% of 370,000 active;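 active = lowest replicate activation of at least 40%, so every replicate reaches that level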
CASP6 VEID inh – blocks human caspase-6 cleavage activity | P55212 | purified caspase-6, Z-VEID-R110 cleavage fluorescence | inhibition, % at 12.5 µM | 0.53% of 350,000 active;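 active = mean inhibition across replicates at least about 35%, with every replicate also reaching that limit, limit read from the data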
RAD54 inh – RAD54 (human) branch migration inhibition; Q92698; RAD54 Holliday junction branch migration, FAM/BHQ fluorescence; inhibition, % at 10.4 µM; 0.14% of 360,000 active;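 active = mean normalized replicate activity at least 40 and at least half of replicates scoring 40 or more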;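 note: inhibitors cause a drop in the FAM fluorescence signal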
UUG fidelity – modulators of yeast start codon fidelity, primary screen, whole organism, S. cerevisiae, single point, plate reader; S. cerevisiae UUG-firefly luciferase reporter, luminescence/redox ratio; activity score, % at 18.7 µM; 0.13% of 350,000 active; AID 602363, 2012;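 active = replicate mean at a twofold rise or more, about +100% in these data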;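 also: firefly luciferase made from a UUG start codon reports start codon fidelity; reporter light over untreated wells divided by growth signal over untreated wells; some hits fall short of that in this replicate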
PglD DTNB – PglD (C. jejuni) enzyme inhibition; purified PglD enzyme, DTNB colorimetric CoA detection; 0.098% of 360,000 active; inhibition, % at 12.5 µM; AID 602405; in the data active = inhibition above about 16%, passing the limit was not always enough
RAD52 anneal inh – blocks human RAD52 DNA annealing. P43351. recombinant RAD52 DNA annealing, FRET fluorescence. inhibition, % at 18.7 µM. 0.46% of 360,000 active;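 active = every replicate showing at least 50% inhibition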
Large screens that a line does not name were inactive. An excerpt weighted towards active compounds, which were near 1.5% of everything screened.

Fc1ccccc1NC(=S)N1CCN(Cc2ccc3c(c2)OCO3)CC1	none (no result: RAD54 inh, UUG fidelity, PglD DTNB)
CCO/C=C1/C(=O)N(c2ccc(OC)cc2)C(=O)c2ccccc21	none
CCO/C=C1/C(=O)N(Cc2ccccc2)C(=O)c2ccccc21	CASP6 VEID inh 93.8 (no result: RAD54 inh, UUG fidelity, PglD DTNB)
CCO/C=C1/C(=O)N(c2ccccc2OC)C(=O)c2ccccc21	CASP6 VEID inh 37.7
CN1C(=O)N(CC(=O)Nc2ccc(C(F)(F)F)cc2)C(=O)C12CCCCC2	none
CCOC(=O)c1c(-c2ccc(C)o2)csc1NC(=O)COC(=O)c1ccc(NC(N)=O)cc1	INS-1E GSIS act 49.6 (no result: CASP6 VEID inh, RAD52 anneal inh)
CN(C)c1cccc(/C=C(\C#N)c2ccccc2)c1	none
CCn1cc(C(=O)NC(=S)Nc2sc3c(c2C(=O)OC)CCCCCC3)cn1	INS-1E GSIS act 74.0 (no result: CASP6 VEID inh, RAD52 anneal inh)
CCn1c(SCC(=O)OCc2ccccc2)nnc1-c1ccco1	CASP6 VEID inh 56.7
C[C@H](CO)N1C[C@H](C)[C@@H](CN(C)Cc2cncnc2)Oc2cc(-c3cncnc3)ccc2S1(=O)=O	none
COc1ccc(-c2[nH]c3ccccc3c2SCCNC(=O)c2cc3ccccc3oc2=O)cc1	none (no result: INS-1E GSIS act)
COc1ccc(-c2[nH]c3ccccc3c2SCCN)cc1	INS-1E GSIS act 57.4
CCOC(=O)CN1C(=O)[C@]2(OCCC=C[C@H]2C)c2ccccc21	INS-1E GSIS act 350.8 (no result: RAD54 inh, UUG fidelity, PglD DTNB)
O=C(Nc1cc(Br)ccc1O)c1cc(-c2ccc3c(c2)OCO3)on1	none
COc1ccc(NC(=O)C2(c3ccc(NC(=O)c4ccc(OC)cc4)cc3)CCCC2)cc1	INS-1E GSIS act 97.7 (no result: CASP6 VEID inh, RAD52 anneal inh)
COc1ccc(C2(C(=O)Nc3nncs3)CCCC2)cc1	none (no result: CASP6 VEID inh, RAD52 anneal inh)
COc1ccc(-c2nc(C(=O)O)cs2)cc1OC	INS-1E GSIS act 71.4 (no result: RAD54 inh, UUG fidelity, PglD DTNB)
CCOC(=O)c1csc(-c2ccc3c(c2)CCO3)n1	none (no result: INS-1E GSIS act)
CCOC(=O)c1csc(-c2ccc(OC)c(OC)c2)n1	INS-1E GSIS act 50.5 (no result: RAD54 inh, UUG fidelity, PglD DTNB)
COC(=O)C1=C(C)N(Cc2cccc(C(F)(F)F)c2)C(=NCC2CC2)NC1c1cccc(Cl)c1 (configuration not stated)	none (no result: INS-1E GSIS act, RAD54 inh, UUG fidelity, PglD DTNB)
COC(=O)C1=C(C)N(Cc2cccc(C(F)(F)F)c2)C(=NCc2ccc3c(c2)OCO3)NC1c1ccc(Cl)cc1 (configuration not stated)	INS-1E GSIS act 145.9 (no result: RAD54 inh, UUG fidelity, PglD DTNB)
COC(=O)C1=C(C)N(Cc2cccc(C(F)(F)F)c2)C(=NCc2ccc(C(F)(F)F)cc2)NC1c1ccc(Cl)cc1 (configuration not stated)	none (no result: INS-1E GSIS act, RAD54 inh, UUG fidelity, PglD DTNB)
COC(=O)C1=C(C)N(Cc2cccc(C(F)(F)F)c2)C(=NCC2CC2)NC1c1cccc(C(F)(F)F)c1 (configuration not stated)	INS-1E GSIS act 420.4 (no result: RAD54 inh, UUG fidelity, PglD DTNB)
CCN=C1NC(c2ccc(C(F)(F)F)cc2)C(C(=O)OC)=C(C)N1Cc1cccc(C(F)(F)F)c1 (configuration not stated)	INS-1E GSIS act 41.4 (no result: RAD54 inh, UUG fidelity, PglD DTNB)
COC(=O)C1=C(C)N(Cc2ccc(C(F)(F)F)cc2)C(=NCc2ccccc2)NC1c1cccc(C(F)(F)F)c1 (configuration not stated)	INS-1E GSIS act 158.3 (no result: RAD54 inh, UUG fidelity, PglD DTNB)
O=C(COc1ccc(S(=O)(=O)N2CCOCC2)cc1)N1CCOCC1	none
CNC(=O)COC(=O)c1cccc(S(=O)(=O)N2CCN(c3ccc(F)cc3)CC2)c1	none
CCN1[C@@H]2c3ccc(-c4ccccc4F)c(=O)n3C[C@H]1[C@H](CO)[C@H]2C(=O)NCc1ccc(F)cc1	none (no result: UUG fidelity)
COC(=O)C1=C(C)N(C)C(=NCc2cccc(C(F)(F)F)c2)NC1c1ccc(C(F)(F)F)cc1 (configuration not stated)	INS-1E GSIS act 45.2 (no result: RAD54 inh, UUG fidelity, PglD DTNB)
COC(=O)C1=C(C)N(C)C(=NCc2cccc(C(F)(F)F)c2)NC1c1ccccc1 (configuration not stated)	none (no result: RAD54 inh, UUG fidelity, PglD DTNB)
COC(=O)C1=C(C)N(Cc2ccccc2)C(=NCc2cccc(C(F)(F)F)c2)N[C@H]1c1cccc(C(F)(F)F)c1	none (no result: INS-1E GSIS act, CASP6 VEID inh, RAD52 anneal inh)
COC(=O)C1=C(C)N(Cc2cccc(C(F)(F)F)c2)C(=NCc2ccc(C(F)(F)F)cc2)NC1c1ccccc1 (configuration not stated)	INS-1E GSIS act 501.0 (no result: RAD54 inh, UUG fidelity, PglD DTNB)
O=C(CCc1nc2ccccc2c(=O)[nH]1)NNC(=O)c1cccc(Cl)c1	INS-1E GSIS act 44.2
O=C(CCc1nc2ccccc2c(=O)[nH]1)NNC(=O)c1ccc(Cl)cc1	none
CNC[C@@H]1Oc2ccc(NC(=O)CCC(F)(F)F)cc2CC(=O)N([C@@H](C)CO)C[C@@H]1C	none
CCc1ccc(-n2c(SCC(=O)NC3CCS(=O)(=O)C3)nc3ccccc3c2=O)cc1 (configuration not stated)	CASP6 VEID inh 44.8
O=C(Nc1ccccc1)c1nc[nH]c1C(=O)Nc1ccccc1F	CASP6 VEID inh 48.5
CC(C)Nc1nc(Nc2ccc(C(N)=O)cc2)c2sccc2n1	INS-1E GSIS act 70.0
CNc1nc(Nc2ccc(C(=O)OC)cc2)c2sccc2n1	none (no result: INS-1E GSIS act, CASP6 VEID inh, RAD52 anneal inh)
C=C1CCN(c2ccc(C(=O)NCc3ccc(OC)cc3)cc2[N+](=O)[O-])CC1	none
O=S(=O)(Nc1ccc(-c2ccc3nncn3n2)cc1)c1ccc(Cl)s1	none (no result: RAD54 inh, UUG fidelity, PglD DTNB)
O=S(=O)(Nc1ccc(-c2ccc3nncn3n2)cc1)c1ccccc1Cl	INS-1E GSIS act 40.5 (no result: RAD54 inh, UUG fidelity, PglD DTNB)
Cc1ccc(C)c(OCc2nc3ccccc3[nH]2)c1	none
Cc1cccc(C)c1OCc1nc2ccccc2[nH]1	CASP6 VEID inh 42.8 (no result: RAD54 inh, UUG fidelity, PglD DTNB)
COc1ccc(NC(=O)N(C)C[C@@H]2OCCCC[C@@H](C)Oc3ccc(NS(=O)(=O)c4cn(C)cn4)cc3C(=O)N([C@H](C)CO)C[C@@H]2C)cc1	none
CCCCC1(c2ccc(F)cc2)NC(=O)N(CC(=O)N2CCN(C(=O)c3ccco3)CC2)C1=O (configuration not stated)	CASP6 VEID inh 46.2
COCCOC(=O)C1=C(C)NC(=O)NC1c1ccco1 (configuration not stated)	none
CCOC(=O)C1=C(C)NC(=O)NC1c1ccco1 (configuration not stated)	CASP6 VEID inh 46.4 (no result: RAD54 inh, UUG fidelity, PglD DTNB)
Cc1cc(O)c(Sc2ncn[nH]2)cc1NS(=O)(=O)c1ccc(Cl)cc1	none
O=C(O)CSc1cc(NS(=O)(=O)c2ccc(Br)cc2)c2ccccc2c1O	CASP6 VEID inh 94.8
O=S(=O)(Nc1cc(Sc2ncn[nH]2)c(O)c2ccccc12)c1ccccc1	CASP6 VEID inh 99.8 (no result: RAD54 inh, UUG fidelity, PglD DTNB)
O=C(NCc1ccco1)c1ccc(C(=O)NCc2ccco2)cc1	CASP6 VEID inh 39.9 (no result: RAD54 inh, UUG fidelity, PglD DTNB)
Cc1ccc(C(=O)OCC(=O)NCc2ccco2)cc1C	none
Cc1ccc(C(=O)N/C(=C/c2ccco2)C(=O)NCc2ccco2)cc1	INS-1E GSIS act 114.9
Cc1cc(C)cc(C(=O)OCC(=O)NCc2ccco2)c1	CASP6 VEID inh 51.1 (no result: INS-1E GSIS act)
O=C(O)CN1C(=O)/C(=C\c2cc(Br)ccc2OCc2ccc(Cl)cc2)SC1=S	CASP6 VEID inh 77.2 (no result: INS-1E GSIS act)
O=C(O)CCCCN1C(=O)/C(=C\c2ccc(OCc3ccccc3)c(OCc3ccccc3)c2)SC1=S	CASP6 VEID inh 71.8
O=C(O)CN1C(=O)/C(=C\c2cc(Br)ccc2OCc2ccc(F)cc2)SC1=S	CASP6 VEID inh 38.5

Source: PubChem
